Assay results as given in patent publication US20240376090A1, “ISOXAZOLE DERIVATIVES AS MODULATORS OF THE 5-HT2A SEROTONIN RECEPTOR USEFUL FOR THE TREATMENT OF DISORDERED RELATED THERETO” (Arena Pharmaceuticals, Inc., priority 2020, published 2024).

The chains behind the UniProt entries cited, without tags or fusion partners.
UniProt P28223, whole entry: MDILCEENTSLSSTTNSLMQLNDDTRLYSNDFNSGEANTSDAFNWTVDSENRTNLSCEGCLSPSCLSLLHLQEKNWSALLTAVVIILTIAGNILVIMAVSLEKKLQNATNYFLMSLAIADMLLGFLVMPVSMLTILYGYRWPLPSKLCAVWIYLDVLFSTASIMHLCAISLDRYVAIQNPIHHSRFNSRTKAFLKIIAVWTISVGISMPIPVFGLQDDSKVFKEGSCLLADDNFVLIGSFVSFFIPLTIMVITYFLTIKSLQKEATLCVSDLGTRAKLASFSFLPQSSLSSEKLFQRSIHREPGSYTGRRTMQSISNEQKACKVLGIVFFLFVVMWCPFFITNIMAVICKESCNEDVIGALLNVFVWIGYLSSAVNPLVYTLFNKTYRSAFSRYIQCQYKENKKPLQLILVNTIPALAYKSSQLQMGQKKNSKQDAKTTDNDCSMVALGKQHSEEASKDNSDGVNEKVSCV

Biological target: 5-HT2A receptor (Homo sapiens (Human), UniProt P28223)
Assay: Radioligand binding assay ([3H]5-HT competition), 5-HT2A
Conditions: [3H]5-HT radioligand, membranes of HEK293 cells expressing recombinant 5-HT2A; Ki from IC50 by Cheng-Prusoff; read-out: 5-HT2A serotonin binding Ki value
Description: Competition binding experiments consisted of addition of 5 μL of serially diluted test compound, 50 μL of radioligand stock diluted in Assay Buffer (20 mM HEPES, pH 7.4, 10 mM MgCl2), and 145 μL of diluted membrane expressing the receptor of interest to 96-well microtiter plates, which were then incubated for one hour at room temperature. Assay incubations were terminated by rapid filtration through Perkin Elmer GF/C filtration plates under vacuum pressure using a 96-well Packard filtration apparatus, followed by washing the filter plates several times with ice cold Assay Buffer. Plates were then dried at 45° C. for a minimum of four hours. Finally, 25 μL of BetaScint scintillation cocktail was added to each well and the plates were counted in a Packard TopCount scintillation counter. In each competition study, test compounds were assayed at 10 concentrations with three replicates at each test concentration. Dose-response curves were constructed to determine IC50 values and these were converted to corresponding Ki values using the Cheng-Prusoff equation.

Row | Structure (SMILES) | Ki
1 | Cc1noc(C)c1-c1cc(NC(=O)C2CC2)ccc1OCCN1CCC1 [Compound 154, N-[4-[2-(azetidin-1-yl)ethoxy]-3-(3,5-dimethylisoxazol-4-yl)phenyl]cyclopropanecarboxamide] | 8.12 nM
2 | Cc1noc(C)c1-c1cc(NC(=O)C2CC2)ccc1OCCN1CCN2C(=O)OCC2C1 (centres unmarked) [Compound 136, N-[3-(3,5-dimethylisoxazol-4-yl)-4-[2-(3-oxo-5,6,8,8a-tetrahydro-1H-oxazolo[3,4-a]pyrazin-7-yl)ethoxy]phenyl]cyclopropanecarboxamide] | 84.1 nM
